Results as given in patent publication US10465009B2, “BCMA antigen binding proteins” (Amgen Inc., priority 2012, dated 2019).

Assays:
[1] = system: H929 human myeloma cells; experiment: H929 subcutaneous tumor xenograft model; type: in vivo, NSG mice; conditions: dosed intravenously once
Excerpt: The majority of multiple myeloma tumor cells reside in the bone marrow and tumor burden has been associated with osteolytic bone disease. In addition, bone marrow stromal cells and osteoclasts may protect multiple myeloma tumor cells from chemotherapy. See Dougall, W C, et al., RANKL is a therapeutic target in multiple myeloma, Roodman-G D ed. Myeloma Bone Disease. Humana Press. 2010: 169-182. A NSG/NOG mouse model has been reported to be an improved host for growth of multiple myeloma cells in bone (Miyakawa-Y, et al., BBRC 313 (2004) 258-262). The NSG mouse model has also been optimized for the use of luciferase labeling for bioluminescent imaging and ex vivo selection for increased tumor take and growth rate (see EXAMPLE 10). 5×10^6 H929 human myeloma cells were implanted subcutaneously into female NSG (NOD/SCID IL2Rg−/−) mice using growth-factor reduced Matrigel™ (BD Biosciences) to generate tumor xenografts for efficacy studies. H929 cells express an average of approximately 24,000 BCMA sites/cell. Treatment with 2A1-MCC-DM1 or control conjugate (anti-streptavidin-MCC-DM1) was initiated when the tumor size reached an average of approximately 150 mm^3. Tumor-bearing animals were randomized by tumor size into groups of ten animals each and dosed intravenously once. A blinded dose response study of 2A1-MCC-DM1 at doses ranging from 20-200 ug DM1/kg (1-10 mg Ab/kg) was performed. […]

[2] = system: H929 luciferase-labeled myeloma cells; experiment: H929-luc bone-tropic xenograft model (incl. serum human IgG FLC kappa ELISA); type: in vivo, NSG mice; conditions: single IV treatment day 14, 250 ug DM1/kg (10 mg Ab/kg)
Method: In short, H929 luciferase-labeled myeloma cells that express an average of approximately 24,000 BCMA sites per cell were administered intravenously (1×10^6 cells) into NSG mice. Fourteen days after tumor inoculation, tumor-bearing animals were randomized based on hind limb bioluminescence (tumor burden) into groups of ten animals each and dosed intravenously once. A blinded dosing study of 2A1CV5-MCC-DM1, unconjugated 2A1CV5 and control conjugate employing a single dose of 250 ug DM1/kg (10 mg Ab/kg) was performed in this established bone-tropic tumor model. No nutritional supplementation was provided.
• 1×10^6 cells H929-luc cells, IV • Mice distributed into equal groups determined by hind limb BLI, Day 14 • Single treatment of antibody at 10 mg/kg, I.V., Day 14 • BLI measured 2×/week (blinded) • Study endpoint day 35 • 80 NSG (NOD/SCID IL2Rg−/−) mice were injected intravenously on Jan. 13, 2011, 1×10^6 H929luc cells • BLI was measured twice per week • Day 14 mice were distributed into five equivalent groups (n=10) based on hind limb tumor burden, as measured by BLI • Treatment plan: one I.V. injection • Treatment groups blinded and include: • Vehicle (PBS) • Anti-huBCMA-huIgG1-2A1-CV5 (unconjugated) • Anti-huBCMA-huIgG1-2A1-CV5-MCC-DM1 • Anti-huBCMA-huIgG1-2A1-WT-MCC-DM1 • Anti Streptavadin-MCC-DM1 • Anti-huBCMA-2A1-CV5-MCC-DM1 used at 10 mpk • Anti-huBCMA-2A1-WT-MCC-DM1 and anti Streptavadin-MCC-DM1 were normalized based on maytansinoid drug equivalents of 2A1-CV5-MCC-DM1 at 10 mpk • Timing: injected H929luc cells, ADC treatment began on day 14, analysis on day 35
Human immunoglobulin molecules consist of two heavy chains which define class (IgG, IgA, IgM, IgD, IgE) and identical light chains (kappa or lambda). In healthy individuals the majority of light chains in serum exist bound to heavy chains. Free Light Chains (FLC) are a natural product of B lymphocytes and represent a unique biomarker of neoplastic and reactive B cell related disorders. Increased FLC are associated with various malignant plasma disorders. Detection of FLC is an important diagnostic aid for a variety of diseases including multiple myeloma, smoldering myeloma and monoclonal gammopathy of undetermined significance. Human IgG FLC kappa ELISA (Biovendor, RD 194088100R-K) was used to analyze presence of FLC in sera from H929 xenografts. Kappa light chain antibodies were not detected in sera of mice 18 days after being treated with 2A1CV5-MCC-DM1, but were detected in sera of mice receiving vehicle (PBS) or isotype control conjugate (anti-Streptavidin-MCC-DM1) (see FIGS. 38 and 39).

[3] = Differential Scanning calorimetry (DSC) thermostability; type: physicochemical; conditions: DSC, full-length antibody, Table 11
Excerpt: Differential Scanning calorimetry (DSC) was used to compare the thermostability of parent and engineered antibodies. DSC is a thermodynamical tool for direct assessment of the heat energy uptake, which occurs in a sample within a regulated increase or decrease in temperature. DSC is commonly employed to assess the thermal and conformational stability of a protein. The melting temperature of a protein, or of individual domains, can be obtained from the DSC profile, and if the reaction is reversible the thermodynamic parameters of the unfolding can be determined. A protein is considered more thermostable when the Tm (transition temperature) is higher. When thermostability data are compared to other bioanalytical methods, like size exclusion chromatography (SEC), it has been observed that a correlation between greater thermostability (higher Tm) and decreased aggregation. Antibodies with a higher Tm and decreased aggregation formation have the potential for improved long-term stability thus potentially making better biotherapeutics.
DSC was carried out using a MicroCal™ VP-Capillary DSC system (GE Healthcare, Piscataway, N.J.) equipped with an auto-sampler. The temperature differences between the reference and sample cells are continuously measured, and calibrated to power units. For example, the full-length antibodies shown in TABLE 10 were diluted to 0.5 mg/mL in a buffered solution. The solution reference and protein samples were measured in a 135 μL cell from 20 to 110° C. at a heating rate of 60° C./hour. The pre-scan was set at 15 minutes while the filtering period was 10 seconds. Signal from the blank buffer solution was used for baseline subtraction. The data analysis was performed using MicroCal™ Origin 7 software. Heat capacity during protein melting was calculated by normalizing over protein concentration.

[4] = system: rrat BCMA (SEQ ID NO: 349); experiment: Biacore T200 biosensor analysis, recombinant rat BCMA; type: binding
Method: Biosensor analysis was conducted at 25° C. in a HBS-P buffer system (10 mM HEPES pH 7.4, 150 mM NaCl, and 0.5% Surfactant P20) using a Biacore T200 optical biosensor equipped with a CM5 sensor chip according to the manufacturer's general protocol. The autosampler was maintained at 8° C.
Goat anti-human IgG capture antibody (Jackson Laboratories; 109-005-098) was immobilized to all flow cells of the sensor chip using standard amine coupling chemistry (9,000 RU). This surface type provided a format for reproducibly capturing fresh analysis antibodies (ligand) after each regeneration step.
Flow cells 1, 2, and 3 were used to analyze captured anti-BCMA antibodies (˜400-500 RU) while flow cell 4 was used as the reference flow cell.
Six rBCMA concentrations ranging from 75.0 to 0.309 nM (3-fold dilutions) were prepared in running buffer. The rrat BCMA fusion protein
(GS::6×His::Sumo::ratBCMA(aa 2-49)::GGS::G3::Avi) sequence:
Each of the six analyte sample concentrations were run in duplicate and in a mixed order, as a means of assessing the reproducibility of binding and managing potential systematic bias to the order of injection. Multiple blank (buffer) injections also were run and used to assess and subtract system artifacts. The association and dissociation phases for all analyte concentrations were monitored for 300 s and 3600 s, respectively, at a flow rate of 50 uL/min.
The surface was regenerated with 10 mM glycine, pH 1.5 for 30 s, at a flow rate of 50 uL/min.
The data was aligned, double referenced, and fit using Scrubber 2™ software, which is an SPR data processing and non-linear least squares regression fitting program. First, a dissociation rate coefficient (kd) was determined from the first 600 s of the dissociation phase data. Second, the dissociation rate coefficient was applied as a fixed parameter in the global fit of the 300 s association phase data using a 1:1 binding model to determine the association rate coefficient (10 and the Rmax value.

[5] = Isoelectric point of whole antibody; type: physicochemical

B1: 2A1-MCC-DM1: parental 2A1 antibody conjugated to maytansine (DM1) using non-cleavable linker (SMCC) (conjugate)
heavy: EVQLVESGGGLVKPGRSLRLSCTASGFTFGDYALSWFRQAPGKGLEWVGVSRSKAYGGTTDYAASVKGRFTISRDDSKSFAYLQMNSLKTEDTAVYYCCSSGYSSGWTPFDYWGQGTLVTVSSASTKGPSVFPLAPSSKSTSGGTAALGCLVKDYFPEPVTVSWNSGALTSGVHTFPAVLQSSGLYSLSSVVTVPSSSLGTQTYICNVNHKPSNTKVDKKV[omitted - human IgG1 Fc]
light: QSVLTQPPSASGTPGQRVTISCSGSSSNIGSNTVNWYQQLPGTAPKLLIFNYHQRPSGVPDRFSGSKSGSSASLAISGLQSEDEADYYCAAWDDSLNGWVFGGGTELTVLGQPKAAPSVTLFPPSSEELQANKATLVCLISDFYPGAVTVAWKADSSPVKAGVETTTPSKQSNNKYAASSYLSLTPEQWKSHRSYSCQVTHEGSTVEKTVAPTECS
tumor growth inhibition ([1]; 67 ug DM1/kg (3 mg Ab/kg)): moderate tumor growth inhibition | tumor growth inhibition ([1]; 200 ug DM1/kg (10 mg Ab/kg)): robust tumor growth inhibition | antitumor effect (hind limb bioluminescence) [2]: complete tumor regression

B2: Ab-3: human IgG1 anti-huBCMA mAb, heavy chain SEQ ID NO:278, light chain SEQ ID NO:284 (antibody)
heavy: EVQLLESGGGLVQPGGSLRLSCAASGFTFSSYAMNWVRQAPGKGLEWVSAISVGGDTYYADSVKGRFTISRDNSKNTLYLQVNSLRAEDSAVYYCAKDQVTLVRGVWYYYGLDVWGQGTTVTVSSASTKGPSVFPLAPSSKSTSGGTAALGCLVKDYFPEPVTVSWNSGALTSGVHTFPAVLQSSGLYSLSSVVTVPSSSLGTQTYICNVNHKPSNTKVDKKV[omitted - human IgG1 Fc]
light: DIVLTQSPLSLPVTPGEPASISCRSSQSLLHSNGNNYLDWYLQKPGQSPHLLISLGSQRTSGVPDRFSGSGSGTDFTLKISRVEAEDVGVYYCMQALQPPRRFGQGTKLEIKRTVAAPSVFIFPPSDEQLKSGTASVVCLLNNFYPREAKVQWKVDNALQSGNSQESVTEQDSKDSTYSLSSTLTLSKADYEKHKVYACEVTHQGLSSPVTKSFNRGEC
Tm [3]: 79 °C | ka [4]: 626000 M⁻¹ s⁻¹ | kd [4]: 0.00129 s⁻¹ | pI (Whole) [5]: 8.55

B3: Ab-2: human IgG1 anti-huBCMA mAb, heavy chain SEQ ID NO:276, light chain SEQ ID NO:282 (antibody)
heavy: EVQLLESGGGLVQPGGSLRLSCAASGFTFSSYAMNWVRQAPGKGLEWVSAISVGGDTYYADSVKGRFTISRDNSKNTLYLQMNSLRAEDTAVYYCAKDQVTMVRGVWYYYGLDVWGQGTTVTVSSASTKGPSVFPLAPSSKSTSGGTAALGCLVKDYFPEPVTVSWNSGALTSGVHTFPAVLQSSGLYSLSSVVTVPSSSLGTQTYICNVNHKPSNTKVDKKV[omitted - human IgG1 Fc]
light: DIVMTQSPLSLPVTPGEPASISCRSSQSLLHSNGNNYLDWYLQKPGQSPHLLISLGSQRTSGVPDRFSGSGSGTDFTLKISRVEAEDVGVYYCMQALQPPRRFGQGTKLEIKRTVAAPSVFIFPPSDEQLKSGTASVVCLLNNFYPREAKVQWKVDNALQSGNSQESVTEQDSKDSTYSLSSTLTLSKADYEKHKVYACEVTHQGLSSPVTKSFNRGEC
Tm [3]: 82.5 °C | ka [4]: 597000 M⁻¹ s⁻¹ | kd [4]: 0.0014 s⁻¹ | pI (Whole) [5]: 8.55
